Experimental data reported in ChEMBL document CHEMBL4742387, “Condensed tricyclic compounds as protein kinase inhibitors” (2018).

Target: T1, Serine/threonine-protein kinase haspin (Homo sapiens, UniProt Q8TF76)
T1 sequence (Q8TF76 whole entry): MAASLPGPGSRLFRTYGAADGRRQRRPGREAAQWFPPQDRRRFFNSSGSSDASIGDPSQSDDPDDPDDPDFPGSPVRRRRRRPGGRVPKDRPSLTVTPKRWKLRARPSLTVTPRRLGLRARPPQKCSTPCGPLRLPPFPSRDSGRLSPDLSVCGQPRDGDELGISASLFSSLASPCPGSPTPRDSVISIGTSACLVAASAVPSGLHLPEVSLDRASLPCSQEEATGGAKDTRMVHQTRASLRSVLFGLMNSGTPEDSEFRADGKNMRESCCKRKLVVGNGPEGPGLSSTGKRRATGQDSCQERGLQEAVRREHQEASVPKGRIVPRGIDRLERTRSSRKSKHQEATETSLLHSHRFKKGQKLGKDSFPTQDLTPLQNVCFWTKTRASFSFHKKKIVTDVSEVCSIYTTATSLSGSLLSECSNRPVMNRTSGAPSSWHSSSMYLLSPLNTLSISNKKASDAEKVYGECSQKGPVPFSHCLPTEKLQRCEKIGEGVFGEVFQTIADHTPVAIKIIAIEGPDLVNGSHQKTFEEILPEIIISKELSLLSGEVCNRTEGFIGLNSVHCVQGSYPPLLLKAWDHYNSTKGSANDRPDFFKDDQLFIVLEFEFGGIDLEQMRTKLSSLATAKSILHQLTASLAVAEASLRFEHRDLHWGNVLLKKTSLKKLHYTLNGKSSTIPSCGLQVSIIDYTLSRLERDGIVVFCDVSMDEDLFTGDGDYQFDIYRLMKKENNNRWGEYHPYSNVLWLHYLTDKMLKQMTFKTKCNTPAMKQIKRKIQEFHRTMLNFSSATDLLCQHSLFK
Test: Inhibition of GST-tagged recombinant human haspin kinase domain incubated for 60 mins by ADP-Glo luminescent kinase assay

Question: With `NC(=O)c1cc2c([nH]1)-c1ccncc1OC2C1CCCCC1` (configuration not stated) as the compound, how does the IC50 read?
Answer: The IC50 was 5.15 µM.

Question: For `CCn1c(C(N)=O)cc2c1-c1ccncc1OC21CCCCC1`, which IC50 is on record?
Answer: The IC50 was 0.0165 µM.
